{"source": "patent US20230104358A1", "about": "(priority 2021, published 2023)", "origin": "cited, not measured here", "tested_on": "cholinergic muscarinic receptors"}
{"molecule": "Cc1nc2n(c(=O)c1CCN1CCC(c3noc4cc(F)ccc34)CC1)CCCC2", "note": "[Risperidone]", "values": [{"measurement": "affinity for cholinergic muscarinic receptors", "result": "no affinity"}]}
